Data taken from PubChem BioAssay AID651821 (The Scripps Research Institute Molecular Screening Center, 2012).
This is a selection; strong and weak results do not stand in their true shares. Calls of active or inactive are those of the source.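 The calls were made as follows: active = inhibition above the plate cutoff, the mean of all test compounds on that plate plus 3 SD (cut at about 35% in these data); inactive = the rest.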

Test: small molecules binding CAG repeat RNA – biochemical, fluorescence, primary screen (AID 651821);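 also: 0% = DMSO alone and 100% = 100 µM mitoxantrone as full dye displacement; higher means more dye released from RNA so lower well fluorescence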
Settings: r(CAG) RNA repeat, TO-PRO-1 dye displacement fluorescence; at 3 µM; stronger effect = higher value

Compound	inhibition
Cc1cccc(OCC(=O)OC2CN3CCC2CC3)c1 (stereo unspecified)	inactive: -1.58%
O=[N+]([O-])c1cc(Oc2ccc([N+](=O)[O-])cc2C(F)(F)F)cc([N+](=O)[O-])c1	inactive: 0.35%
COc1ccc(N/C(=N/P(=O)(N2CCOCC2)N2CCOCC2)N2CCOCC2)cc1	inactive: -5.17%
Cc1c2c(nc3ccccc13)SC(C(Cl)Cl)C2 (stereo unspecified)	inactive: 1.52%
O=C(OC1CN2CCC1CC2)C12CC3CC(CC(C3)C1)C2 (stereo unspecified)	inactive: 0.7%
Cc1cc(=O)[nH]c(N[N+](=O)[O-])n1	inactive: -0.97%
O=P1(N(CCCl)CCCl)Nc2ccccc2N1	inactive: 2.98%
O=P1(N(CCCl)CCCl)OCCCN1CCCl (stereo unspecified)	inactive: 2.19%
COc1ccc2nc(NP(=O)(c3ccccc3)c3ccccc3)sc2c1	inactive: -3.11%
COc1cc(I)ccc1[As](=O)(O)O	inactive: 0.61%
ClCCSc1nnc(-c2cccnc2)o1	inactive: -1.32%
CC(C)c1ccc(OP(=O)(Nc2ccccn2)Oc2ccccc2F)cc1 (stereo unspecified)	inactive: -3.01%
COC(=O)C1(C)COP(=O)(N2CCCCCC2)OC1 (stereo unspecified)	inactive: 1.27%
O=C(OC1CN2CCC1CC2)c1cccc2[nH]cnc12 (stereo unspecified)	inactive: -6.53%
CCN(CC)C(=S)SC(NC=O)C(Cl)(Cl)Cl (stereo unspecified)	inactive: 2.28%
CC(C)NC(=O)NP(=O)(Oc1ccccc1)Oc1ccccc1	inactive: -3.3%
O=[As](O)(c1ccc(O)cc1)c1ccccc1O	inactive: 4.84%
C[As](=O)(O)c1cccc(C(=O)O)c1	inactive: -1.17%
COc1cc(C(=O)NCC2(N3CCOCC3)CCCCC2)ccc1OCC(C)C	inactive: -5.58%
O=[N+]([O-])c1ccc(-c2cc([N+](=O)[O-])c(O)c([N+](=O)[O-])c2)cc1	inactive: 7.12%
Cc1ccc(OP(=O)(Nc2ccc([N+](=O)[O-])cn2)Oc2ccc(C)cc2)cc1	inactive: 3.84%

Compound	inhibition
[N-]=[N+]=NC1CCCCC1NC(=O)c1cc([N+](=O)[O-])cc([N+](=O)[O-])c1 (stereo unspecified)	inactive: 3.13%
Cc1ccc2nc3c(c(C)c2c1)CC(C(Cl)Cl)S3 (stereo unspecified)	inactive: 7.34%
CCOC(=O)Nc1cccc([As](=O)(O)O)c1	inactive: 0.24%
Cc1cc(SC(NC=O)C(Cl)(Cl)Cl)ncn1 (stereo unspecified)	inactive: -1.67%
O=P(Nc1ccccn1)(c1cccc2ccccc12)c1cccc2ccccc12	inactive: -2.71%
O=[N+]([O-])c1ccc(Nc2ccc(Oc3ccc([N+](=O)[O-])cc3[N+](=O)[O-])cc2)c([N+](=O)[O-])c1	inactive: 3.63%
O=C(O)C(O)c1ccc(N(CCCl)CCCl)cc1 (stereo unspecified)	inactive: 5.26%
CCOC(=O)Nc1ccc([As](=O)(O)O)c(O)c1	inactive: 1.7%
CC1CCNP(=O)(N(CCCl)CCCl)O1 (stereo unspecified)	inactive: -0.78%
COP(=O)(OC)N1CC1c1ccccc1 (stereo unspecified)	inactive: 2.86%
CCCCOc1ccc(C(=O)NCC2(N3CCCCC3)CCCCC2)cc1OC	inactive: -5.86%
Cc1cc(SC(NC(=O)c2ccccc2)C(Cl)(Cl)Cl)nc(C(C)C)n1 (stereo unspecified)	inactive: 3.06%
O=C(OC1CN2CCC1CC2)c1cccc([N+](=O)[O-])c1 (stereo unspecified)	inactive: -1.69%
CCOC(=O)c1ccc(NC(=O)C(C)(CCl)SC)cc1 (stereo unspecified)	inactive: 1.24%
CCC(C)N(CC(C)C)C(=S)SC(NC(C)=O)C(Cl)(Cl)Cl (stereo unspecified)	inactive: -3.96%
COP1(=S)c2c(C)nn(CCC#N)c2N=C(c2ccc(F)cc2)N1C (stereo unspecified)	inactive: -4.48%
COC(=O)C1(C)COP(=O)(N2CCCC2)OC1 (stereo unspecified)	inactive: 2.32%
O=C(O)C(=O)c1ccc(N(CCCl)CCCl)cc1	inactive: 6.53%
O=C(COc1ccccc1)OC1CN2CCC1CC2 (stereo unspecified)	inactive: 2.23%
O=C(Nc1ccncc1[N+](=O)[O-])c1ccc([N+](=O)[O-])cc1[N+](=O)[O-]	inactive: 4.36%
